Laboratory results published in publication PMC4844575, “The influence of different metal-chelate conjugates of pentixafor on the CXCR4 affinity” (EJNMMI Research, 2016).

Sequences of proteins named here, by UniProt entry; tags and fusion partners are left off.
UniProt P61073, whole entry: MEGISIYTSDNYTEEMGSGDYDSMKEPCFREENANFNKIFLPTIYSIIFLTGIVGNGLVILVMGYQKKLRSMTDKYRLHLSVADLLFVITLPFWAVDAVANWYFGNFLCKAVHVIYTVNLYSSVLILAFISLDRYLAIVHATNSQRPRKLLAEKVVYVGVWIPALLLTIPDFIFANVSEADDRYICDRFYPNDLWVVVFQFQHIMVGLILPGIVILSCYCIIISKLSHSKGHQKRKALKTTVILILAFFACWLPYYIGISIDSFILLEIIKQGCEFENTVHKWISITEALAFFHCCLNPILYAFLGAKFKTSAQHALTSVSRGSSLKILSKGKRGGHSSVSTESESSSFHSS

Molecular target: T1, CXCR4 (Homo sapiens, UniProt P61073)
T1 construct: endogenous in cells; host or cells: Jurkat T-cell leukemia cells
Test: competitive binding assay on Jurkat cells with [125I]FC131 as radioligand
Settings: Jurkat T-cells, 4 × 10^5 cells per vial, app. 0.1 nM [125I]FC131, 120 min incubation, mean ± SD (n = 3)
Description: For in vitro experiments, the Jurkat T - cell line was used. […] The cell line was cultured at 37 °C in a humidified atmosphere with 5 % CO2 and passaged two to three times a week, depending on the cell count.
Jurkat cells (4 × 10^5 cells per vial) were incubated with the respective peptide of interest at the final concentrations ranging from 10^−11 to 10^−5 M and app. […] The total sample volume was 250 μL. After an incubation time of 120 min, the vials were centrifuged at 1300 rpm (Heraeus Megafuge, Thermo) for 3 min and the supernatant was removed. The cells were washed twice with 200 μL ice-cold Hank’s balanced salt solution (HBSS). After each washing step, the samples were centrifuged and the supernatant removed. Finally, the amount of displaced and bound radioligand in the combined fractions of the supernatant and the cell pellet was quantified. The half maximal inhibitory concentration (IC50) values were determined using GraphPad Prism software.

IC50: 9.9 nM
Compound: N=C(N)NCCC[C@@H]1NC(=O)[C@H](CCCNC(=N)N)NC(=O)[C@@H](Cc2ccc(O)cc2)NC(=O)CNC(=O)[C@H](Cc2ccc3ccccc3c2)NC1=O [FC131, cyclo(-D-Tyr-L-Arg-L-Arg-L-Nal-Gly-), reference compound]
